For three compounds, Kd and IC50 results are on record in patent US10934274B2, “Quinoline derivatives as TAM RTK inhibitors” (Qurient Co., Ltd., priority 2015, dated 2021).

The chains behind the UniProt entries cited, without tags or fusion partners. Residues count along the entry.
UniProt P30530, 26-894 limits assumed: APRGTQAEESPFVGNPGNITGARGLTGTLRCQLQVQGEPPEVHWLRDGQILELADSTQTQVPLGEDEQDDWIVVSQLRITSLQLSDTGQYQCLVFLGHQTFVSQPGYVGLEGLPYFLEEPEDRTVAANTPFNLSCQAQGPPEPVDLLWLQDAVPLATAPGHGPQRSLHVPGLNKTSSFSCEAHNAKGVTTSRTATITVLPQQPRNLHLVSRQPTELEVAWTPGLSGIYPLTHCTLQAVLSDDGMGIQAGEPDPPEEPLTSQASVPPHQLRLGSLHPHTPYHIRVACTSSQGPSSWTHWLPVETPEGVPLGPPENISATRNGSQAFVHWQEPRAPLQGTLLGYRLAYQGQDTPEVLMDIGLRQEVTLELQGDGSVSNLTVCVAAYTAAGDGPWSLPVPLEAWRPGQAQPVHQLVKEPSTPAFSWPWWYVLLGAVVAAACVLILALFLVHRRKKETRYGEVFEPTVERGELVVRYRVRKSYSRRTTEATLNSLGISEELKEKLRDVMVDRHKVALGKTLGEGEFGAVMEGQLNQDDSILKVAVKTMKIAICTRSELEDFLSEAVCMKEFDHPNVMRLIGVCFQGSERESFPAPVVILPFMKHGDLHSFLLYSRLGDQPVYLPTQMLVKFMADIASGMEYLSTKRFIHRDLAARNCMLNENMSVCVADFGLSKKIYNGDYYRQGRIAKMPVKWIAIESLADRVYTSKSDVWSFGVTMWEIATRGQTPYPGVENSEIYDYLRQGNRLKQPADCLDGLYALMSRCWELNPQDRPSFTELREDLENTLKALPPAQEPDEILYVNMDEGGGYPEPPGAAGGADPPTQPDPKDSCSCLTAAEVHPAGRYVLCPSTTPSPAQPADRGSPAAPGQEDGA
UniProt Q12866, 21-999 limits assumed: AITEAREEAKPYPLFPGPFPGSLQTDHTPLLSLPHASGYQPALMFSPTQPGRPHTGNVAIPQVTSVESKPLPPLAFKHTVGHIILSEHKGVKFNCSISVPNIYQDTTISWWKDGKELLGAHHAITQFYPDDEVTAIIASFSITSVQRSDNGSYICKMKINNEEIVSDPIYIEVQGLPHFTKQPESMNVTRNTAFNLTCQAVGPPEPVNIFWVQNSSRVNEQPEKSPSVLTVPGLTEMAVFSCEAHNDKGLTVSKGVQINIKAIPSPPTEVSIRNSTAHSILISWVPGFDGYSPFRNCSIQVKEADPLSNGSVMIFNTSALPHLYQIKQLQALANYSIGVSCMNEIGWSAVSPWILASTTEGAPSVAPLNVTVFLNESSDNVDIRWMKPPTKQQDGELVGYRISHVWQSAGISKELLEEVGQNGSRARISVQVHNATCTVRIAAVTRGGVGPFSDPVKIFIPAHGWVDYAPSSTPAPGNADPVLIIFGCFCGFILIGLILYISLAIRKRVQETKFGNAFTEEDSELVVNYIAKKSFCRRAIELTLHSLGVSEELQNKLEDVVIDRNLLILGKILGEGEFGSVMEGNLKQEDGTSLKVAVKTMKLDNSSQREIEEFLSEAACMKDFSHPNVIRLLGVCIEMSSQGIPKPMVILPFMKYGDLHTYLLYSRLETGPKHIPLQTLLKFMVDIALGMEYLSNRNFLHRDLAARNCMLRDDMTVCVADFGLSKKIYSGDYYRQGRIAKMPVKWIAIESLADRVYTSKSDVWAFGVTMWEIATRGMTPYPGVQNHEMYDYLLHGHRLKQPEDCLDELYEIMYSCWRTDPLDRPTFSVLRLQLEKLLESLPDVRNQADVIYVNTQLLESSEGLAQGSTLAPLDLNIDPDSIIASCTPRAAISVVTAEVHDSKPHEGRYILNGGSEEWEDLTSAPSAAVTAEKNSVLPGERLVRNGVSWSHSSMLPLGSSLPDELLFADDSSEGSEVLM
UniProt Q06418, 41-890 limits assumed: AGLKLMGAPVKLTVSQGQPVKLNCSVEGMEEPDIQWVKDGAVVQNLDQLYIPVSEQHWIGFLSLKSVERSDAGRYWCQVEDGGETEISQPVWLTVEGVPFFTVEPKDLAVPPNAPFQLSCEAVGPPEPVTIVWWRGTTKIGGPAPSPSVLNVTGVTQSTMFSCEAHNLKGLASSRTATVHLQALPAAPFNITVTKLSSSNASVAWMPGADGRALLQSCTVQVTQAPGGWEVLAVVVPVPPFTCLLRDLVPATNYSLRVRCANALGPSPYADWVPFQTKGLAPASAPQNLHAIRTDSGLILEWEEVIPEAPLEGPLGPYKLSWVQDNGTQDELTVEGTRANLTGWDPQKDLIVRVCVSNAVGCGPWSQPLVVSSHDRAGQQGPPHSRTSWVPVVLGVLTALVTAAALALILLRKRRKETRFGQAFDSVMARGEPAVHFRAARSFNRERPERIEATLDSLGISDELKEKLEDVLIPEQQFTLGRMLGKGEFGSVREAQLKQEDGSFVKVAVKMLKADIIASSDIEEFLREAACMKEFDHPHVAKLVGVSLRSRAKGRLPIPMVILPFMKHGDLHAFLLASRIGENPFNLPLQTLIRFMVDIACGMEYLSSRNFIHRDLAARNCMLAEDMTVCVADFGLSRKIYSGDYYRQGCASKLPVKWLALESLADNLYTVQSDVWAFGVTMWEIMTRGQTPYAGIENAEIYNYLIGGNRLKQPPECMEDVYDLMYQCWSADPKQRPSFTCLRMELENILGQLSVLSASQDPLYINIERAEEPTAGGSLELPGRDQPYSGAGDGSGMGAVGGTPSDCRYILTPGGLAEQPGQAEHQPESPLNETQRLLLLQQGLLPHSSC
UniProt P08581, 25-1390 limits assumed: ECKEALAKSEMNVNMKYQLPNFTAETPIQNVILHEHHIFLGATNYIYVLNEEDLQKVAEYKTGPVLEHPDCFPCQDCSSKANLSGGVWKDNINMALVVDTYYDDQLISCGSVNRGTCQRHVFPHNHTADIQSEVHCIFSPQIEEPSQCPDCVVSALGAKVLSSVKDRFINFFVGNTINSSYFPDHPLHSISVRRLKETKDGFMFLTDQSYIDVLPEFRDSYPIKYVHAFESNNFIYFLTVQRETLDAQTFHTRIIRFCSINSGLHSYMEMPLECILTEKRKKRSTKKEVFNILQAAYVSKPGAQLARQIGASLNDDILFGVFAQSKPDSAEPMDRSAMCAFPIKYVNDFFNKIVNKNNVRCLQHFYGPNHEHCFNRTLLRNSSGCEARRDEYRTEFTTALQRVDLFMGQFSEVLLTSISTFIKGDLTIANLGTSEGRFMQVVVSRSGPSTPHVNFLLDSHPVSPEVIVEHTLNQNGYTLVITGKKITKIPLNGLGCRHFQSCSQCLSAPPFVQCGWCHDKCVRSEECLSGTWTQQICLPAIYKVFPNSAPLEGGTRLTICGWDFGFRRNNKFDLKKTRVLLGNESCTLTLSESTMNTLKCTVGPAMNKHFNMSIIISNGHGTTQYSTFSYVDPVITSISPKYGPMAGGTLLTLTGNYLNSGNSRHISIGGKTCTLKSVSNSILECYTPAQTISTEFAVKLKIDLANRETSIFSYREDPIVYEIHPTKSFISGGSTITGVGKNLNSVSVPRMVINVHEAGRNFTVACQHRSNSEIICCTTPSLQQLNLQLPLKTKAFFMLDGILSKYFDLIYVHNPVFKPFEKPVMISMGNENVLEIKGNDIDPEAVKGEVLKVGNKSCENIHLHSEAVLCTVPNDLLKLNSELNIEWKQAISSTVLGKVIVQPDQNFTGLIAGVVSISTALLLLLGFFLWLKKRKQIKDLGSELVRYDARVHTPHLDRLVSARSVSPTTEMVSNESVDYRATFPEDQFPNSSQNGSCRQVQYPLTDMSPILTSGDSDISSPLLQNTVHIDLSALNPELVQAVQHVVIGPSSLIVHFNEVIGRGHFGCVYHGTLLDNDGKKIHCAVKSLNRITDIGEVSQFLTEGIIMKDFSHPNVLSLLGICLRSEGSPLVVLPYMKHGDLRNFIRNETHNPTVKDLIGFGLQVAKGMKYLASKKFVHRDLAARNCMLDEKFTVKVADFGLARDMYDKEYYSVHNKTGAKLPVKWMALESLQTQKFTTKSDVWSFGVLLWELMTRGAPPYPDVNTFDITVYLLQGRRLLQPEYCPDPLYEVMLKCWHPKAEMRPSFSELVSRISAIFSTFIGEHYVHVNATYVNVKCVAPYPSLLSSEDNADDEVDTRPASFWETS

The target in experiment [1] is Axl (Homo sapiens, UniProt P30530). Put plainly: LanthaScreen Eu kinase binding assay, Axl. To be noted: read-out: Axl kinase binding activity (Kd), Tracer 236. (TR-FRET usually uses a lanthanide donor and a delayed reading to cut background.)
For experiment [2], the target named is Mer (Homo sapiens, UniProt Q12866). Put plainly: LanthaScreen Eu kinase binding assay, Mer. To be noted: read-out: Mer kinase binding activity (Kd), Tracer 236.
The target in experiment [3] is TYRO3 (Homo sapiens, UniProt Q06418). The experiment is described as follows: LanthaScreen Eu kinase binding assay, TYRO3. To be noted: read-out: TYRO3 kinase binding activity (Kd), Tracer 236.
For experiment [4], the target named is Met (Homo sapiens, UniProt P08581). The experiment is described as follows: LanthaScreen Eu kinase binding assay, Met. Conditions: read-out: cMet kinase binding activity (Kd), Tracer 236.
For experiment [5], the system named is Axl phosphorylation in transiently transfected HEK293T cells. Put plainly: Cellular Axl phosphorylation assay. To be noted: read-out: Axl cellular (IC50); HEK293T cells transfected with Axl, 1 hour compound treatment, Phospho-Axl vs Total-Axl.

Some results are limits rather than exact numbers.

On to `CCOc1cn(CCc2cccnc2)nc1C(=O)Nc1ccc(Oc2ccnc3cc(OC)c(OC)cc23)cn1`, for which the Kd was 100 to 1000 nM in experiment [1], less than 100 nM in experiment [2], 100 to 1000 nM in experiment [3] and 100 to 1000 nM in experiment [4].

Turning to `CCOc1cn(C(C)(C)CC(=O)NC)nc1C(=O)Nc1ccc(Oc2ccnc3cc(OC)c(OC)cc23)cn1`, the Kd in experiment [1] is less than 100 nM; in experiment [2], less than 100 nM; in experiment [3] it was 100 to 1000 nM; in experiment [4], 100 to 1000 nM. In experiment [5], the IC50 is less than 100 nM.

On to `CCOc1cn(-c2cnccc2CO)nc1C(=O)Nc1ccc(Oc2ccnc3cc(OC)c(OC(F)(F)F)cc23)cc1F`, for which the Kd in experiment [1] was less than 100 nM; in experiment [2], less than 100 nM; in experiment [3] it was 100 to 1000 nM; in experiment [4] it was greater than 1000 nM.

Broadly, the Kd is the free concentration of one partner at which half of the binding sites on the other are occupied at equilibrium, for simple one-to-one binding. By IC50 is commonly meant the point on the concentration scale where inhibition reaches its midpoint.
